Assay results as given in patent US6486310B1, “Gene encoding the rat dopamine D4 receptor” (Washington University, priority 1993, dated 2002).

Legend:
[1] = tested on: D2A444 transfected MN9D cells
[2] = tested on: D4 transfected MN9D cells
[3] = tested on: D3 transfected MN9D cells

CCCN1CCC[C@@H]2Cc3n[nH]cc3C[C@H]21 [quinpirole]
Branch Number per cell (μm) [1]: 2.35 ± .35 μm | Neurite Number per Cell (μm) [1]: 4.72 ± .23 μm | Primary Neuritic Length (μm) [1]: 30.09 ± 2.02 μm | Total Neuritic Length (μm) [1]: 104.48 ± 8.95 μm | effect on neurite branching and extension (in words) [1]: four fold increase in the frequency of branching of neurites with little effect on neurite extension | Branch Number per cell (μm) [2]: 2.10 ± .29 μm | Neurite Number per Cell (μm) [2]: 4.12 ± .23 μm | Primary Neuritic Length (μm) [2]: 59.82 ± 6.7 μm | Total Neuritic Length (μm) [2]: 140.53 ± 13.56 μm | effect on neurite branching and extension (in words) [2]: small increase in neurite branching and a large increase in neurite extension | Branch Number per cell (μm) [3]: 3.51 ± .34^+ μm | Neurite Number per Cell (μm) [3]: 4.64 ± .26 μm | Primary Neuritic Length (μm) [3]: 54.24 ± 6.69 μm | Total Neuritic Length (μm) [3]: 157.77 ± 13.94^+ μm | effect on neurite branching and length (in words) [3]: increases in neurite branching and neurite length | Branch Number per cell (μm) (MN9D cells): .63 ± .12 μm | Neurite Number per Cell (μm) (MN9D cells): 4.25 ± .23 μm | Primary Neuritic Length (μm) (MN9D cells): 22.94 ± 2.01 μm | Total Neuritic Length (μm) (MN9D cells): 63.29 ± 4.39 μm | effect on neuritic outgrowth (in words) (MN9D cells): no increases in neuritic outgrowth with the exception of the neurite number
